# Apparent affinities of Ab-14 variants for a coronavirus HR2 peptide

Reference: Engelhart et al. 2022, doi:10.1038/s41597-022-01779-4. File: FLAb, binding data.

Antigen: PDVDLGDISGINAS, a 14-residue peptide of the SARS-CoV-2 spike HR2 region.

Parent: Ab-14, a human scFv built as VH, a (GGGGS)3 linker, VL. Only the CDRs of the heavy chain vary.
VH: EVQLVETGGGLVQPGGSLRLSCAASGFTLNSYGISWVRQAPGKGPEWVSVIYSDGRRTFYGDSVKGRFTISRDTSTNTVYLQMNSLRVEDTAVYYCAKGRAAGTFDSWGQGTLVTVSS
VL: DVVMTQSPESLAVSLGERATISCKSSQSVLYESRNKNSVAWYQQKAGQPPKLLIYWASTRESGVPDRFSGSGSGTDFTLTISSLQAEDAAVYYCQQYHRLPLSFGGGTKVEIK

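Phage display of a naive human antibody library on the peptide gave the parent. The library (AAYL49) carries one to three amino acid substitutions per variant, with no insertions or deletions. In AlphaSeq, yeast of one mating type display the scFv and yeast of the other type display the target. Mating (16 h, 30 °C) was followed by selection of diploids and sequencing of their barcodes. A regression on co-assayed BCL2-family reference pairs converts the normalised counts of each replicate to an apparent Kd. Each pool was mated in three replicate cultures.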

Variants are written as CDR1, CDR2 and CDR3 of the heavy chain (limits as in the source). Parent: GFTLNSYGIS, VIYSDGRRTFYGDSVK, GRAAGTFDS. Affinities are written as log10 Kd with Kd in nM; a lower number is a better binder. A mean of the replicates is given; it leaves out those without a signal. An entry "nd" has no value in the source: the pair was not observed among the diploids in any replicate. This suggests poor binding but is not conclusive. Parent in this assay: reference entry 0.65, copy in this library 4.11 (one replicate of three).

With GFTLNSYVIS / QIYSDGRRKFYGDSVK / GRAAGTFDS the result was nd (0 of 3 replicates).
With GFTLNSYGID / VIYSDGRRTFYGDSVK / GRAAGQFDS the result was 4.24 (1 of 3 replicates).
With QFTLNSYGIS / VIYSDGRRTFYGDSVK / GRAAGGKDS the result was 1.77 (3 of 3 replicates).
With GFTLNSYGIF / VIYSDGRRTFYLDSVK / GRAAGTFIS the result was nd (0 of 3 replicates).
With GFTLNSYDIS / VIYSDGRRTFYGDSVK / GRQAGTFFS the result was nd (0 of 3 replicates).
With GFTLNSYGIS / VIYSDGRRTIYGLSVK / GEAAGTFDS the result was nd (0 of 3 replicates).
With GFTLNSYGIS / VIYYDGRRTFYGGSVK / GRAAGTFAS the result was 3.49 (1 of 3 replicates).
With GFTVNSYGIS / VIYSDGRRTWYGASVK / GRAAGTFDS the result was 2.64 (3 of 3 replicates).
With GFTLNSYGPS / VIYIDGRRTFYGDSVK / GRAAGTFMS the result was nd (0 of 3 replicates).
With GFTLNSYGIS / IIYSDGRRTFYGDSVK / GRAAGTLDL the result was 3.34 (2 of 3 replicates).
With GFTLNSYGIS / VIYSDGRRTFSGDSVK / GRAAGTILS the result was 4.66 (3 of 3 replicates).
With SNTLNSYGIS / VIYSDGRRTFYGDSVK / GRGAGTFDS the result was 2.26 (3 of 3 replicates).
With GFTLNSYAKS / VIYSDGRRTFYGDSVK / GRAAGTSDS the result was 6.04 (1 of 3 replicates).
With GFTLNSNYIS / VIYSDGRRTFYGDSVK / ERAAGTFDS the result was 4.49 (2 of 3 replicates).
With GFTLNSYGIS / VIYSDGRRTFYGPQVK / GRAALTFDS the result was 4.45 (1 of 3 replicates).
With GFTLNSYVIS / VIYSDGRRTFYGDSKK / SRAAGTFDS the result was 4.75 (2 of 3 replicates).
With GFTLNSYGIG / VIWSDGRRTFYGDSVK / GRAAGTKDS the result was 3.46 (1 of 3 replicates).
With GFTLNSYGIS / VIYSDGRRTFEGDSVN / GRAAGTGDS the result was nd (0 of 3 replicates).
With GFTYNSQGIS / VIYPDGRRTFYGDSVK / GRAAGTFDS the result was nd (0 of 3 replicates).
With GFTLNSYQIS / VIMSDGRRTFYGASVK / GRAAGTFDS the result was nd (0 of 3 replicates).
With NFTTNSYGIS / VIYSDGRRTFYGDSNK / GRAAGTFDS the result was nd (0 of 3 replicates).
With GFTLNSYGIS / RIYSDIRRTFYGDSVK / GRWAGTFDS the result was nd (0 of 3 replicates).
With GFTLNSYGIS / VNYSDVRRTFYGDSVK / YRAAGTFDS the result was nd (0 of 3 replicates).
With GFTDNSYLIS / VLYSDGRRTFYGDSVK / GRAAGTFDS the result was 5.76 (1 of 3 replicates).
With GFTLNSFGIA / VIYSDGRRTFYGDSVK / GRAAGTWDS the result was 5.72 (1 of 3 replicates).
With GFTLNSYGIS / VIYSDGRRTFYGDSVK / GPAAGFFDS the result was nd (0 of 3 replicates).
With GFTLNSYGIA / VIYSDGMRTFYGDSVK / GEAAGTFDS the result was nd (0 of 3 replicates).
With GFTLNWYGIS / IIYSDGRRTFYGDSVK / GRAAGTFDG the result was nd (0 of 3 replicates).
With GFTLNSYGIS / VIVSDGRRTIYGDSVK / GRAAGAFDS the result was nd (0 of 3 replicates).
With WFTLNSYGIS / VIYSDGRRTMYGDSVK / GRAAGTFIS the result was nd (0 of 3 replicates).
With GFTLNSYKIS / VIYSDGRRTFYGDSVI / GRAAGTWDS the result was 4.43 (3 of 3 replicates).
With GFTLNSYDIS / VIYSDGRRTFYGDSVK / GRAAGGFWS the result was nd (0 of 3 replicates).
With GFTLFSYGIS / VIYSDPRRTFYGDSVK / GRAAGTFDS the result was nd (0 of 3 replicates).
With GFTLNSYGIS / VIASDGRRTFYGDSVV / GRAAGTFDP the result was nd (0 of 3 replicates).
With GFTLNAYGIS / VTVSDGRRTFYGDSVK / GRAAGTFDS the result was nd (0 of 3 replicates).
With GFTLNTYGIS / VIYSDGRRTFYADSVK / GRAAGTADS the result was 5.66 (1 of 3 replicates).
With GFTLNSQGIS / VIYKDGRRTFYGDSVK / GRAAGTFDS the result was nd (0 of 3 replicates).
With GFNLNSYGIS / VIYSDGRRTFYGDDVK / GRAAGTFDS the result was 0.24 (3 of 3 replicates).
With GFTLNSYGIS / VIYSDGRRTFFGSSVK / GRAAGTFDS the result was 2.96 (3 of 3 replicates).
With GFTLNSYGIS / VIYSDGRRQFYGDSIK / GRAALTFDS the result was nd (0 of 3 replicates).
With IFTLNSYGIS / VIYSDGRRTQYGDSVK / GRAAGTFFS the result was 5.08 (1 of 3 replicates).
With GFTLNSYGIS / VIYSDGRRTFYGDSVF / GGAAGTFDS the result was 2.33 (3 of 3 replicates).

Excerpt, the final 6 entries:

CDR-H1,CDR-H2,CDR-H3,"mean, log10 nM",detected
GFTLNSQGIS,VIYKDGRRTFYGDSVK,GRAAGTFDS,nd,0 of 3
GFNLNSYGIS,VIYSDGRRTFYGDDVK,GRAAGTFDS,0.24,3 of 3
GFTLNSYGIS,VIYSDGRRTFFGSSVK,GRAAGTFDS,2.96,3 of 3
GFTLNSYGIS,VIYSDGRRQFYGDSIK,GRAALTFDS,nd,0 of 3
IFTLNSYGIS,VIYSDGRRTQYGDSVK,GRAAGTFFS,5.08,1 of 3
GFTLNSYGIS,VIYSDGRRTFYGDSVF,GGAAGTFDS,2.33,3 of 3

Three control strains display no target. For library AAYL49, 15% of the pairings with them gave a signal, with a median of 4.06 and one signal in twenty below 2.83, so weak values seen in few replicates may be background.